Consider three compounds from patent US20240043379A1, “PRODRUGS OF CYTOTOXIC ACTIVE AGENTS HAVING ENZYMATICALLY CLEAVABLE GROUPS” (Bayer Pharma Aktiengesellschaft, priority 2016, published 2024).

In this data set the test system is Caco-2 cells. The note with it: for Papp (B-A): Caco-2, 2 hours incubation.

As for `CC(C)(C)[C@H](c1cc(-c2cc(F)ccc2F)cn1Cc1ccccc1)N(CCCN)C(=O)CSC[C@H](N)C(=O)O.O=C(O)C(F)(F)F.O=C(O)C(F)(F)F` [Example M11, S-{2-[(3-Aminopropyl){(1R)-1-[1-benzyl-4-(2,5-difluorophenyl)-1H-pyrrol-2-yl]-2,2-dimethylpropyl}amino]-2-oxoethyl}-L-cysteine/trifluoroacetic acid (1:2)], the “Papp (B-A)” value came to 2.43 ×10⁻⁶ cm/s. Also, the Efflux ratio (ratio of Papp (B-A) to Papp (A-B), Caco-2) is given as 27.7.
As for `CC(C)(C)[C@H](c1cc(-c2cc(F)ccc2F)cn1Cc1ccccc1)N(CCCN)C(=O)CO` [Example M9, N-(3-Aminopropyl)-N-{(1R)-1-[1-benzyl-4-(2,5-difluorophenyl)-1H-pyrrol-2-yl]-2,2-dimethylpropyl}-2-hydroxyacetamide], the “Papp (B-A)” value worked out at 21.3 ×10⁻⁶ cm/s.
Turning to `CC(C)(C)[C@H](c1cc(-c2cc(F)ccc2F)cn1Cc1ccccc1)N(CC[C@H](N)C(=O)NCCNC(=O)CNC(=O)C(CC(=O)O)SC[C@H](N)C(=O)O)C(=O)CO` (stereo partly drawn) [Example M27, 4-[(2-{[2-({(2S)-2-Amino-4-[{(1R)-1-[1-benzyl-4-(2,5-difluorophenyl)-1H-pyrrol-2-yl]-2,2-dimethylpropyl}(glycoloyl)amino]butanoyl}amino)ethyl]amino}-2-oxoethyl)amino]-3-{[(2R)-2-amino-2-carboxyethyl]sulphanyl}-4-oxobutanoic acid/trifluoroacetic acid (1:1)], the “Papp (B-A)” value was 1.32 ×10⁻⁶ cm/s.
